Laboratory results: ChEMBL document CHEMBL4673282, “Identification of a New Heterocyclic Scaffold for Inhibitors of the Polo-Box Domain of Polo-like Kinase 1” (J Med Chem, 2020)

Experiment: in vitro
Settings: PAMPA

For `CC(C)(C)OC(=O)CC[C@H](NC(=O)OC(C)(C)C)C(=O)NCCCn1c(=O)c2cc(F)ccc2n2c(=S)[nH]nc12`, which Papp is on record?
The Papp was 744 ×10⁻⁶ cm/s.

For `CC(C)(C)OC(=O)CC[C@@H](NC(=O)OC(C)(C)C)C(=O)NCCCn1c(=O)c2cc(F)ccc2n2c(=S)[nH]nc12`, which Papp is on record?
Its Papp is 121 ×10⁻⁶ cm/s.
